{
  "source": "patent US10034922B2",
  "about": "“Peptide having angiogenesis inhibitory activity and composition containing same” (GemVax & KAEL Co., Ltd., priority 2013, dated 2018)",
  "key": {"[1]": {"tested_on": "Human umbilical vein endothelial cell", "assay": "Vascular endothelial cell viability, EGM-2 media", "format": "cell-based", "details": "PEP1 0.05, 0.5, 5 μM, EGM-2 media stimulation", "protocol": "The vascular endothelial cells were plated to a 6-well plate (BD Biosciences, Bedford, Mass., USA) of the 1×10^5 cells/well. The cells were synchronized by the basic EBM-2 media (Lonza) which has no serum and angiogenesis factors, treated by PEP1 at each concentration (0.05, 0.5, 5 μM) and stimulated by the EGM-2 media, in order to observe the cell proliferation inhibition effect.\nFor detecting the cell proliferation, by using the trypan blue staining solution (Invitrogen, Carlsbad, Calif., USA), the cells were directly counted in the microscope (×100), and the cell viability was analyzed by using viability assay kit (Merck Millipore Inc.) with Muse™ analyzer."}, "[2]": {"tested_on": "HSP70", "assay": "HSP70 protein level by flow cytometry", "format": "cell-based, human", "details": "MCF7 cells", "protocol": "MCF7 cells were treated by the PEP1 or the control group. For the proteasome inhibition test, during the incubation, the cells were treated by the 5 μM proteasome inhibitor MG132 (Calboicam). By using the trypsin, the cells were separated and rinsed by the cold PBS (phosphate buffered saline) and the FACS buffer (PBS containing 1% BSA and 0.1% NaN3). For the intracellular staining, the cells were treated by the permeabilization buffer (eBioscience, CA, USA) following the instruction of the manufacturer. The cells were reacted with α-HSP70-FITC (ab61907, Abcam) or α-HSP90-PE (ab65171, Abcam) at the 4° C. for 30 minutes. By using FACScan flow cytometer (Becton Dickinson Co., CA, USA), the flow cytometry analysis was done. The data were analyzed by using Flowjo™ software (version 10.0.5, Tree Star, Inc., OR, USA)."}, "[3]": {"tested_on": "HSP90", "assay": "HSP90 protein level by immunoblotting, serum-free media, 2 h treatment", "format": "cell-based, human", "details": "for amount of HSP90, comparison with HSP inhibitors: 17-AAG 1 μM, KNK437 1 μM; for HSP90 level: increasing concentration, serum-free", "protocol": "Jurkat and MCF7 cells ([…]) were seeded and incubated for 12 hours. After treating the starvation for 2 hours by adding the OPTI-MEM media, same as the shown figure, the cells were treated by the PEP1 at the different concentrations, by the scrambled peptides, […] (1 μM) or KNK437 (1 μM). After the 2-hour incubation, the cells were collected and lysated by using cell lysis buffer (Thermo Scientific, IL, USA). By using Bradford Protein Assay (Bio-Rad, USA), the protein concentration was quantified, and the samples were treated by SDS-PAGE and immunoblotting with α-HSP70 (sc-32239 and sc-66048, Santa Cruz, Calif., USA), α-HSP90 (ab1429, abcam, USA), α-GRP78 (sc-13968), α-HIF-1a (sc-10790) or α-GAPDH (sc-25778) antibodies. The immune reactive band was visualized by the intensive chemiluminescence kit (iNtRoN Biotechnology, INC, Korea), and analyzed by ImageQuant™ LAS-4000 (GE Healthcare Life Science, NJ, US)."}, "[4]": {"tested_on": "HSP70", "assay": "Secreted HSP70 level in blood of tumor-bearing mice (ELISA)", "format": "in vivo, mouse", "details": "serum of MC38 tumor mice, PEP1 50 μg/kg", "protocol": "7 week-old BALB/c athymic mice (Nu/Nu) (10 mice per group; n=20, female, Orient Bio Co. Gyunggido, Korea) were divided into two groups randomly after the subcutaneous injection of murine colon carcinoma MC38 (5×10^5 cells/ml in 200 μl PBS per site). PEP1 (50 μg/kg in 100 μl 0.9% NaCl solution) or PBS were injected into the mice once per 2 days. When the size of tumor reaches 10 mm, the PEP1 and PBS were injected to the inside of tumor. The size of tumor was measured in once per 2 days, and the volume of tumor was calculated following equation; volume (mm3)=((width2×length)/2). All experiments were approved by the Institute for Experimental Animals (College of Medicine, Seoul National University at Seoul, Korea). VEGF secretion in cancer cells was confirmed by ELISA (Enzyme-linked immunosorbent assay). MCF7 and HeLa cells were incubated in the hypoxia circumstance or the normoxia circumstance after adding PEP1 or vehicle during 24 hours. The amount of VEGF in the cell supernant was confirmed by human VEGF immune analysis kit (R&D Systems, USA) following the instruction of the manufacturer. For analyzing the concentration of HSP70 and HSP90 in blood, the blood was collected from the mouse model having tumor. […]"}, "[5]": {"tested_on": "MC38 tumor", "assay": "Proliferating cells in tumor sections (PCNA immunohistochemistry)", "format": "in vivo, mouse", "details": "PCNA staining, PEP1 treated group", "protocol": "(§1) For evaluating the apoptosis of tumor, by using formalin-fixed and Paraffin-embedded tumor sections, the DNA fragmentation was analyzed by Tunnel assay. According to the manufacturer's instruction, the tumor section was stained by the apoptosis detection kit (ApopTag Peroxidase In Situ, Millipore). The proliferating cells in tumor were detected by using PCNA (Proliferating cell nuclear antigen). For searching the antigen, the tissue sections were deparaffinized in 10 μM citrate (pH6.0) buffer during 40 minutes, hydrated, and heated. The tissues were stained by anti-mouse PCNA monoclonal antibody (ab29, Abcam). After the second treatment and development of antibody, the tissue sections were contrast stained by H&E staining method. And then, the field was randomly selected from the 6 slides of each treatment groups, and the field was analyzed by Leica Qwin software for quantification."}, "[6]": {"tested_on": "MC38 tumor", "assay": "Apoptosis in tumor sections (TUNEL assay)", "format": "in vivo, mouse", "details": "TUNEL staining, PEP1 treated tumor sample", "protocol": "as §1"}, "[7]": {"tested_on": "Human umbilical vein endothelial cell induced by VEGF-A", "assay": "Invasion of vascular endothelial cells by VEGF-A (Matrigel transwell)", "format": "cell-based", "details": "PEP1 0.05, 0.5, 5 μM, VEGF-A 10 ng/mL, 18 hours", "protocol": "The vascular endothelial cells of the serum-starvation by the basic EBM-2 media for 2 hours were plated each as 100 mL (4×10^5 cells/mL) to Matrigel® (1 mg/mL, BD Biosciences)-coated transwell insert (Costar, 6.5 mm diameter), and the 600 μl basic EBM-2 media was added to the under well.\nAfter treating with PEP1 at each concentration (0.05, 0.5, 5 μM) and stimulating by VEGF-A (10 ng/mL) for 18 hours, the insert was fixed by the methanol and the non-infiltrated cells in the upper side of the insert was eliminated by using cotton-tipped swab. After staining by the Giemsa stain solution (Sigma-Aldrich Co., St. Louis, Mo., USA) and observing the 6 different parts by the microscope (×200), the infiltrated cells were directly counted by using the microscope (FIG. 6a)."}},
  "data": [
    {"molecule": "CC[C@H](C)[C@H](NC(=O)[C@H](Cc1ccccc1)NC(=O)[C@H](CCCNC(=N)N)NC(=O)[C@H](CC(C)C)NC(=O)[C@H](CCCNC(=N)N)NC(=O)[C@H](CO)NC(=O)[C@@H](NC(=O)[C@H](CC(C)C)NC(=O)[C@H](CC(C)C)NC(=O)[C@H](C)NC(=O)[C@@H]1CCCN1C(=O)[C@H](CCCNC(=N)N)NC(=O)[C@H](C)NC(=O)[C@@H](N)CCC(=O)O)[C@@H](C)O)C(=O)N1CCC[C@H]1C(=O)N[C@@H](CCCCN)C(=O)O", "note": "[PEP1, EARPALLTSRLRFIPK]", "values": [
      {"measurement": "cell survival rate", "setting": "[1]", "result": "did not affect"},
      {"measurement": "effect of PEP1 on HSP70 with proteasome inhibitor", "setting": "[2]; PEP1 with MG132 5 μM", "result": "disappeared"},
      {"measurement": "cell surface HSP70, compared with intracellular HSP", "setting": "[2]; cell surface staining", "result": "less affected"},
      {"measurement": "intracellular HSP70", "setting": "[2]; intracellular staining", "result": "decreases"},
      {"measurement": "decrease of HSP90", "setting": "[3]; Jurkat cells, 5 μM", "result": "more than 50%"},
      {"measurement": "amount of HSP90, comparison with HSP inhibitors", "setting": "[3]; Jurkat cells, PEP1 5 μM", "result": "decreased"},
      {"measurement": "HSP90 level", "setting": "[3]; Jurkat cells", "result": "significantly decreased"},
      {"measurement": "decrease of HSP90 as compared with the control group", "setting": "[3]; MCF7 cells, 5 μM", "result": "more than 20%"},
      {"measurement": "amount of HSP90, comparison with HSP inhibitors", "setting": "[3]; MCF7 cells, PEP1 20 μM", "result": "decrease"},
      {"measurement": "HSP90 level", "setting": "[3]; MCF7 cells", "result": "significantly decreased"},
      {"measurement": "secreted HSP70 level in blood vs control group", "setting": "[4]", "result": "lower"},
      {"measurement": "cell proliferation in tumor (PCNA)", "setting": "[5]", "result": "decrease"},
      {"measurement": "cell apoptosis in tumor vs control group", "setting": "[6]", "result": "significant high level"},
      {"measurement": "cell invasion by the VEGF-A", "setting": "[7]", "result": "strongly inhibits"}
    ]}
  ]
}
